In PubChem BioAssay AID623877 (Johns Hopkins Ion Channel Center, 2012) one finds outcome data, which are given here for 25 compounds.

By UniProt entry, the sequences of proteins in these tests, tags left out.
UniProt Q8BHY3, whole entry: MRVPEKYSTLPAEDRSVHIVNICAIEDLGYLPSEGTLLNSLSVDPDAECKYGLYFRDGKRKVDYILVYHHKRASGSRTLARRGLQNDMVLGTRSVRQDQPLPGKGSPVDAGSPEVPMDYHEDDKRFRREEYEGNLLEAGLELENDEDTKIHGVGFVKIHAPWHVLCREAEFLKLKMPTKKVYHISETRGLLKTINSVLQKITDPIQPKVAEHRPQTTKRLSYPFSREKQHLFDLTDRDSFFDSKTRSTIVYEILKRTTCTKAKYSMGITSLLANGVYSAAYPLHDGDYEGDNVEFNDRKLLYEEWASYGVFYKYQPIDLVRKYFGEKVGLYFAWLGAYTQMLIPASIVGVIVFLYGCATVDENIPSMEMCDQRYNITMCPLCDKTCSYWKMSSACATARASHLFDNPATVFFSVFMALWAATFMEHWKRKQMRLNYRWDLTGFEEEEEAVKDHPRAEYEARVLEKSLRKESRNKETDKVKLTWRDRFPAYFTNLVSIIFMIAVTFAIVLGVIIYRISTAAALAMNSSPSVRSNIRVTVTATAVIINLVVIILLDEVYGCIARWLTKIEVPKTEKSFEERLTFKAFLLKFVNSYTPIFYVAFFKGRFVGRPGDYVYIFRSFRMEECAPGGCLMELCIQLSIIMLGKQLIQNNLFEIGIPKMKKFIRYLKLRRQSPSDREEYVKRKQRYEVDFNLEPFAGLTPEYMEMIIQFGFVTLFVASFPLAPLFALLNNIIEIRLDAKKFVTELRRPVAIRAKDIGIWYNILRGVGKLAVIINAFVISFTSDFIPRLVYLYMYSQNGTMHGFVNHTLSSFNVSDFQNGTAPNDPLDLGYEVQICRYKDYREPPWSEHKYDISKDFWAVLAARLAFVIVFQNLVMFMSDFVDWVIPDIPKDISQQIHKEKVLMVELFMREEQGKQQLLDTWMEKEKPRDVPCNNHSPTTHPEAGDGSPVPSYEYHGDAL

Molecules are shown by their SMILES. The entries are a selection whose mix differs from that of the whole data set. Some tests of the compounds listed are not included; inactive here does not mean inactive elsewhere. Calls of active or inactive are those of the source.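 Rule for the calls: active = fluorescence-ratio B-score plate-corrected deviation score at least 3 library SD below zero, with starting fluorescence score within 5 deviations; inactive = the rest.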

The target in this test is Anoctamin-1 (Mus musculus) (UniProt Q8BHY3). The experiment in a line: mouse ANO1 channel activation – cell-based, HTS, primary screen (AID 623877). The settings on record: HEK293 TMEM16A/YFP-H148Q/I152L, iodide quench fluorescence; at 10 µM.
Turning to `CN(C)C1(CNC(=O)c2ccc(Br)cc2)CCCCC1`, the call was inactive.

Turning to `COc1cc(C(=O)NCC2(N(C)C)CCCCC2)c([N+](=O)[O-])cc1OC`, the compound was classed as inactive.

For the compound `COc1ccc(Cl)cc1C(=O)NCC1(N(C)C)CCCCC1`, the result was inactive.

Regarding `COc1cccc(C(=O)NCC2(N3CCCCC3)CCCCC2)c1`, the outcome was inactive.

In the case of `O=C(NCC1(N2CCCCC2)CCCCC1)c1cccc(Cl)c1`, the result was inactive.

Consider `O=C(OC1CN2CCC1CC2)C(CO)(c1ccccc1)c1ccccc1` (stereo not given), for which the call was inactive.

Consider `COc1ccc(Br)c(C(=O)NCC2(N3CCCCC3)CCCCC2)c1`, for which the result was inactive.

For the compound `CN(C)c1cccc(C(=O)NCC2(N(C)C)CCCCC2)c1`, the result was inactive.

On to `O=C(OCCN1CCCC1)C(O)(c1ccccc1)c1ccccc1`, for which the result was inactive.

As to `CC(C)Oc1ccc(C(=O)NCC2(N(C)C)CCCCC2)cc1`, the call was inactive.

Consider `O=C(NCC1(N2CCCCC2)CCCCC1)c1cc([N+](=O)[O-])ccc1Cl`, for which the result was inactive.

Take `CN1[C@@H]2CC[C@H]1CC(OC(=O)C(O)(c1ccccc1)c1ccccc1)C2` (stereo not given in full): the result was inactive.

Take `CC(C)N1C(=O)CC2(CCN(CCOC(=O)C(O)(c3ccccc3)c3ccccc3)CC2)C1=O`: the result was inactive.

`COc1cc(SC)ccc1C(=O)NCC1(N(C)C)CCCCC1`: the call was inactive.

As to `CCN(CC)CC(C)C(C)OC(=O)C(O)(c1ccccc1)c1ccccc1` (stereo not given), the compound was called inactive.

For `Cc1ccc(C(=O)NCC2(N3CCCCC3)CCCCC2)cc1`, the compound was classed as inactive.

In the case of `CN(C)c1ccc(C(=O)NCC2(N(C)C)CCCCC2)cc1`, the outcome was inactive.

With `CN(C)C1CCCC1OC(=O)C(O)(c1ccccc1)c1ccccc1` (stereo not given), the result was inactive.

Regarding `Cc1ccccc1C(=O)NCC1(N2CCCCC2)CCCCC1`, the call was inactive.

On to `O=C(NCC1(N2CCCCC2)CCCCC1)c1cc(F)c(F)cc1Cl`, for which the compound was classed as inactive.

As for `C=CCN1CCN(CCOC(=O)C(O)(c2ccccc2)c2ccccc2)CC1`, the compound was called inactive.

Consider `O=C(NCC1(N2CCCCC2)CCCCC1)c1cccc(Br)c1`, for which the compound was classed as inactive.

`CCN1CCCC(OC(=O)C2(O)c3ccccc3C=Cc3ccccc32)C1` (stereo not given): the compound was called inactive.

Regarding `Cc1cc(C(=O)NCC2(N3CCCCC3)CCCCC2)ccc1[N+](=O)[O-]`, the compound was called inactive.

With `COc1ccc(C(=O)NCC2(N(C)C)CCCCC2)cc1`, the compound was called inactive.
